PubChem BioAssay AID1468 (National Center for Advancing Translational Sciences (NCATS), 2008)
This is a selection; strong and weak results do not stand in their true shares. Results filed as inconclusive are left out. Active and inactive are the calls of the source. The call rests on the fitted dose curve; in most records, active means well fitted inhibition curve with a large enough effect; inconclusive means small, poorly fitted or top-dose-only effect, or effect the other way; inactive means flat fitted curve, though single readings scatter.
Further: nearly all actives have a fitted effect of over 55% in size.
On the % scale 0 is the no-effect control and ±100 the full control effect.

Amino acid sequences for entries named in this document (tags omitted). Residues count along the entry.
UniProt P10636, 561-689 P618L limits assumed: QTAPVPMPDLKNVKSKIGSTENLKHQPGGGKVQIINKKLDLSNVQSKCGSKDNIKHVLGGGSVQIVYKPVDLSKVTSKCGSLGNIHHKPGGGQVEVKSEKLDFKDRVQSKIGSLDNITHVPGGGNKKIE

These compounds were tested against Microtubule-associated protein tau (Homo sapiens) (UniProt P10636) (assay: qHTS for Inhibitors of Tau Fibril Formation, Fluorescence Polarization). Settings: K18 P301L tau heparin fibrillization, Alexa594 FP, 6 h; at 57.7 µM (top of the series).
From the text: NIH Molecular Libraries Probe Production Network [MLPCN]
NIH Chemical Genomics Center [NCGC]
Assay Provider: Carlo Ballatore, University of Pennsylvania
The microtubule-associated protein tau is an abundant protein in the axons of neurons that stabilizes microtubules. With its ability to modulate microtubule dynamics, tau contributes directly or indirectly, to key structural and regulatory cellular functions. Particularly important is the influence tau exerts on axonal transport, which allows signaling molecules, trophic factors and other essential cellular constituents to travel along the axons. Under pathological conditions, tau becomes sequestered into insoluble aggregates called neurofibrillary tangles. This phenomenon is believed to have pathological consequences by promoting axonal transport deficits that ultimately lead to synaptic dysfunction and neuronal loss. To identify inhibitors of tau aggregation, a heparin-induced tau fibril formation assay was used that employed a recombinantly expressed fragment of tau, K18 (Q242-E372), bearing a P301L mutation (Gustke et al. 1994; Hong et al. 1998).
Gustke, N., B. Trinczek, et al. (1994). "Domains of tau protein and interactions with microtubules." Biochemistry 33(32): 9511-22.
Hong, M., V. Zhukareva, et al. (1998).
Li, W. and V. M. Lee (2006). "Characterization of two VQIXXK motifs for tau fibrillization in vitro." Biochemistry 45(51): 15692-701.
von Bergen, M., S. Barghorn, et al. (2001). "Mutations of tau protein in frontotemporal dementia promote aggregation of paired helical filaments by enhancing local beta-structure." J Biol Chem 276(51): 48165-74.
NCGC Assay Protocol Summary:
For screening, 2 uL/well human K18 P301L (15 uM unlabeled and 0.24 uM Alexa 594-labeled tau final concentrations) in reagent buffer (100 mM sodium acetate pH 7) was dispensed into black solid 1536-well plates (Grenier) using a solenoid-based dispenser. Following transfer of 23 nL compound or DMSO vehicle by a pin tool, 2 uL/well heparin (20 uM final concentration) in reagent buffer was added and the plate centrifuged 15 s at 1000 RPM. Plates were incubated 6 hr at 37 C and then 1 uL/well ThT (30 uM final concentration) was added. After a 1 hr ambient incubation, the plates were read by an Envision (Perkin Elmer) to monitor Alexa 594 FP (555 nm excitation and 632 nm emission).
Keywords: NIH Roadmap, MLPCN, MLI, MLSMR, NCGC, qHTS, tau, tauopathies, Alzheimer's disease, fibril, neurodegeneration, aggregation
CP(=O)(Oc1ccccc1)OC(c1ccccc1)C(F)(F)F (centres undefined) was tested, and the activity, negative = inhibition was inactive: -6.19%.
With CP(=O)(Nc1ccc(SC(F)(F)F)cc1)Oc1ccc(Cl)cc1 (centres undefined) the activity, negative = inhibition was inactive: -3.79%.
Cc1cccc(C)c1OP(C)(=O)Nc1ccc(SC(F)(F)F)cc1 (centres undefined) was tested, and the activity, negative = inhibition was inactive: -3.42%.
For Cc1cc(C)cc(OP(C)(=O)Nc2ccc(SC(F)(F)F)cc2)c1 (centres undefined), the activity, negative = inhibition was inactive: -13.6%.
For CP(=O)(NC(=O)Nc1ccccc1)Oc1ccccc1 (centres undefined), the activity, negative = inhibition was inactive: -11.7%.
For CCOP(C)(=S)SCC(=O)NC(C)C(=O)O (centres undefined), the activity, negative = inhibition was inactive: 3.65%.
In the case of CCOC(=O)c1ccc(NP(C)(=O)Oc2ccc(OC)cc2)cc1 (centres undefined), the activity, negative = inhibition is reported as inactive: 3.53%.
With CP(=O)(Nc1ccccn1)Oc1ccc(Cl)cc1 (centres undefined) the activity, negative = inhibition was inactive: -2.02%.
For CP(=S)(Nn1cnnc1)Oc1ccccc1 (centres undefined), the activity, negative = inhibition was inactive: 0.162%.
COc1ccccc1OP(C)(=O)Nc1ccccc1 (centres undefined) was tested, and the activity, negative = inhibition was inactive: 3.47%.
With CP(=O)(Nc1ccccc1Br)Oc1ccccc1 (centres undefined) the activity, negative = inhibition was inactive: 0.176%.
For Cc1cccc(C)c1OP(C)(N)=O (centres undefined), the activity, negative = inhibition was inactive: -4.03%.
CC(C)(C)c1ccc(OP(C)(=O)Nc2ccc(SC(F)(F)F)cc2)cc1 (centres undefined) was tested, and the activity, negative = inhibition was inactive: 8.96%.
For O=[N+]([O-])c1ccc2c(c1)C=Nc1ccccc1O2, the activity, negative = inhibition was inactive: 3.93%.
CCOC(=O)c1ccc(NP(C)(=O)Oc2ccccc2)cc1 (centres undefined) was tested, and the activity, negative = inhibition was inactive: 6.76%.
With Cc1ccc(NP(C)(=O)Oc2ccccc2)c(C)c1 (centres undefined) the activity, negative = inhibition was inactive: -0.354%.
COc1ccccc1OP(C)(=O)Nc1ccc(C)cc1 (centres undefined) was tested, and the activity, negative = inhibition was inactive: 8.6%.
With COc1ccc(OP(C)(=O)Nc2cccc(F)c2)cc1 (centres undefined) the activity, negative = inhibition was inactive: -4.06%.
With COc1ccccc1OP(C)(=O)Nc1cc(Cl)ccc1C (centres undefined) the activity, negative = inhibition was inactive: 2.01%.
Cc1cc(C)cc(OP(C)(N)=O)c1 (centres undefined) was tested, and the activity, negative = inhibition was inactive: -13.1%.
For CCN(CC)CCCOC(=O)C(O)(c1ccccc1)c1ccccc1, the activity, negative = inhibition was inactive: -13.6%.
With COc1ccccc1OP(C)(=O)Nc1cccc(Br)c1 (centres undefined) the activity, negative = inhibition was inactive: 4.06%.
Cc1cc(C)cc(OP(C)(=O)Nc2ccc(C)cc2C)c1 (centres undefined) was tested, and the activity, negative = inhibition was inactive: -0.625%.
CCOC(=O)c1ccc(NP(C)(=O)Oc2cc(C)cc(C)c2)cc1 (centres undefined) was tested, and the activity, negative = inhibition was inactive: 8.02%.
In the case of Cc1cc(C)cc(OP(C)(=O)Nc2ccccn2)c1 (centres undefined), the activity, negative = inhibition is reported as inactive: 2.47%.
In the case of CP(=O)(Nc1cccc(Br)c1)Oc1ccccc1 (centres undefined), the activity, negative = inhibition is reported as inactive: -13.4%.
For Cc1ccc(C)c(NP(C)(=O)Oc2ccccc2)c1 (centres undefined), the activity, negative = inhibition was inactive: -3.91%.
In the case of O=[N+]([O-])OCC(CO[N+](=O)[O-])(CO[N+](=O)[O-])CO[N+](=O)[O-], the activity, negative = inhibition is reported as inactive: 1.09%.
With CC1=NCCc2c1[nH]c1ccccc21.O=[N+]([O-])c1cc([N+](=O)[O-])c(O)c([N+](=O)[O-])c1 the activity, negative = inhibition was inactive: 5.87%.
With O=[N+]([O-])c1cc([N+](=O)[O-])c(Nc2nnnn2CCO)c([N+](=O)[O-])c1 the activity, negative = inhibition was inactive: -1.71%.
In the case of CN1CCCCC1COC(=O)C1(O)c2ccccc2CCc2ccccc21 (centres undefined), the activity, negative = inhibition is reported as inactive: -10.8%.
With COc1ccccc1OP(C)(=O)Nc1c(C)cccc1C (centres undefined) the activity, negative = inhibition was inactive: 7.16%.
With CCCOc1ccc(NP(C)(=O)Oc2ccc(Cl)cc2)cc1 (centres undefined) the activity, negative = inhibition was inactive: 3.86%.
For CP(=O)(Nc1ccc(SC(F)(F)F)cc1)Oc1ccccc1 (centres undefined), the activity, negative = inhibition was inactive: -2.99%.
In the case of O=[N+]([O-])c1cc([N+](=O)[O-])c(-n2nnc3ccccc32)c([N+](=O)[O-])c1, the activity, negative = inhibition is reported as inactive: 5.42%.
For Cc1nc2ccc3ccccc3c2s1.O=[N+]([O-])c1cc([N+](=O)[O-])c(O)c([N+](=O)[O-])c1, the activity, negative = inhibition was inactive: 5.95%.
For CP(=O)(Nc1ccc(SC(F)(F)F)cc1)Oc1ccc(F)cc1 (centres undefined), the activity, negative = inhibition was inactive: -5.59%.
For CCOP(C)(=S)SCC(=O)NC(C)(CC)C(=O)O (centres undefined), the activity, negative = inhibition was inactive: 0.656%.
For CP(=O)(Nc1ccc2c(c1)OCCO2)Oc1ccccc1 (centres undefined), the activity, negative = inhibition was inactive: 3.12%.
In the case of Cc1ccccc1NP(C)(=O)Nc1ccccc1C, the activity, negative = inhibition is reported as inactive: 1.64%.
CCN(CCCl)Cc1ccccc1C was tested, and the activity, negative = inhibition was inactive: 2.67%.
COc1ccc(OP(C)(=O)Nc2cccc(Br)c2)cc1 (centres undefined) was tested, and the activity, negative = inhibition was inactive: -2%.
For COc1ccc(NP(C)(=O)Oc2ccccc2OC)cc1 (centres undefined), the activity, negative = inhibition was inactive: 1.29%.
CN(C)CCOC(=O)C(O)(c1ccccc1)C1CCCCC1 (centres undefined) was tested, and the activity, negative = inhibition was inactive: 4.15%.
In the case of Cc1cc(-c2cccc3ccccc23)c(C)cn1.O=[N+]([O-])c1cc([N+](=O)[O-])c(O)c([N+](=O)[O-])c1, the activity, negative = inhibition is reported as inactive: -4.04%.
With O=[N+]([O-])c1ccc(OP2(=O)COCCO2)cc1 (centres undefined) the activity, negative = inhibition was inactive: 5.18%.
For COc1ccc(OP(C)(=O)Nc2ccc(SC(F)(F)F)cc2)cc1 (centres undefined), the activity, negative = inhibition was inactive: 4.01%.
In the case of CCOC(=O)c1ccc(NP(C)(=O)Oc2ccc(F)cc2)cc1 (centres undefined), the activity, negative = inhibition is reported as inactive: -4.37%.
With CCN(CC)CCCOC(=O)C(O)(c1ccccc1)C1CCCCC1 (centres undefined) the activity, negative = inhibition was inactive: -3.53%.
With CCCCCOc1ccc(NP(C)(=O)Oc2ccc(Cl)cc2Cl)cc1 (centres undefined) the activity, negative = inhibition was inactive: 11.6%.
With CP(=O)(Nc1ccccc1)Oc1ccc(F)cc1 (centres undefined) the activity, negative = inhibition was inactive: -1.54%.
For CC(C)c1ccc(OP(C)(=O)Nc2ccc(SC(F)(F)F)cc2)cc1 (centres undefined), the activity, negative = inhibition was inactive: 9.7%.
For CP(=O)(Nc1ccccc1F)Oc1ccccc1 (centres undefined), the activity, negative = inhibition was inactive: 1.24%.
For O=C(OCCN1CCN(CCOCc2ccccc2)CC1)C(O)(c1ccccc1)c1ccccc1, the activity, negative = inhibition was inactive: 8.96%.
CN(C)CCOC(=O)C(O)(c1ccccc1)C1CCCC1 (centres undefined) was tested, and the activity, negative = inhibition was inactive: -0.621%.
For COc1ccc(OP(C)(=O)Nc2ccccn2)cc1 (centres undefined), the activity, negative = inhibition was inactive: -8.77%.
Cc1c(NP(C)(=O)Oc2ccc(C(C)C)cc2)c(=O)n(-c2ccccc2)n1C (centres undefined) was tested, and the activity, negative = inhibition was inactive: -1.04%.
For O=[N+]([O-])c1cc([N+](=O)[O-])c(Nc2ccccn2)c([N+](=O)[O-])c1, the activity, negative = inhibition was inactive: 6.24%.
CCc1ccc(OP(C)(=O)O)cc1 was tested, and the activity, negative = inhibition was inactive: -5.26%.
COc1ccccc1OP(C)(=O)Nc1ccc(C)cc1C (centres undefined) was tested, and the activity, negative = inhibition was inactive: -14.8%.
CP(=O)(Nc1ccccn1)Oc1ccccc1 (centres undefined) was tested, and the activity, negative = inhibition was inactive: 4.85%.
For Cc1cc(C)cc(OP(C)(=O)Nc2cccc(C(F)(F)F)c2)c1 (centres undefined), the activity, negative = inhibition was inactive: -2.57%.
In the case of COc1ccc(OP(C)(=O)Nc2ccccc2Br)cc1 (centres undefined), the activity, negative = inhibition is reported as inactive: 2.67%.
COc1ccccc1OP(C)(=O)Nc1ccc(C)c(C)c1 (centres undefined) was tested, and the activity, negative = inhibition was inactive: -10.7%.
With CP(=O)(Nc1ccc(Cl)cc1Cl)Oc1ccccc1 (centres undefined) the activity, negative = inhibition was inactive: -6.38%.
CP(=O)(OCCOc1ccccc1)OCCOc1ccccc1 was tested, and the activity, negative = inhibition was inactive: 0.641%.
For CP(=O)(OC12CC3CC(CC(C3)C1)C2)OC12CC3CC(CC(C3)C1)C2, the activity, negative = inhibition was inactive: 0.116%.
In the case of CCOC(=O)c1ccc(NP(C)(=O)Oc2ccc(Cl)cc2)cc1 (centres undefined), the activity, negative = inhibition is reported as inactive: 1.96%.
For COc1ccc(OP(C)(=O)Nc2ccc(Br)cc2)cc1 (centres undefined), the activity, negative = inhibition was inactive: 5.82%.
With CCN(CC)CC(O)COC(=O)C(O)(c1ccccc1)C1CCCCC1 (centres undefined) the activity, negative = inhibition was inactive: -2.72%.
In the case of CCc1ccc(OP(C)(=O)Nc2cccnc2)cc1 (centres undefined), the activity, negative = inhibition is reported as inactive: 11.2%.
In the case of CP(=O)(Oc1ccccc1)N1CCOC1=O (centres undefined), the activity, negative = inhibition is reported as inactive: 0.0156%.
For O=C(OCCCN1CCCC1)C(O)(c1ccccc1)C1CCCCC1 (centres undefined), the activity, negative = inhibition was inactive: 7.87%.
For OCCSCCO, the activity, negative = inhibition was inactive: 2.11%.
For COc1ccccc1OP(C)(=O)Nc1c(C)n(C)n(-c2ccccc2)c1=O (centres undefined), the activity, negative = inhibition was inactive: 2.3%.
In the case of CP(=O)(Nc1ccc(Cl)cc1)Oc1ccc(F)cc1 (centres undefined), the activity, negative = inhibition is reported as inactive: -0.996%.
With COc1ccccc1OP(C)(=O)Nc1ccccc1Br (centres undefined) the activity, negative = inhibition was inactive: 0.429%.
CC(C)(C)c1ccc(OP(C)(=O)O)cc1 was tested, and the activity, negative = inhibition was inactive: 3.23%.
CN(C)C(=O)c1c([N+](=O)[O-])cc([N+](=O)[O-])cc1[N+](=O)[O-] was tested, and the activity, negative = inhibition was inactive: -7.2%.
